Biological target: T1, human adenosine A3 receptor (Homo sapiens, UniProt P0DMS8)
T1 construct: full length cDNA encoding human adenosine A3 receptor subcloned in pcDNA3; expressed in transfected cells; host or cells: chick embryo atrial myocytes, transient calcium phosphate transfection with pcDNA3/hA3R
Assay: Preconditioning in chick atrial myocytes transfected with the human A3 receptor
Assay type: cell-based
Settings: hA3R-transfected vs vector-transfected atrial myocytes
Experimental: Transfection of chick atrial myocytes with the human A3 receptor—Atrial cells were cultured from chick embryos 14 days in ovo and transiently transfected with pcDNA3 (empty vector) or with pcDNA3/hA3R (full length cDNA encoding human adenosine A3 receptor subcloned in pcDNA3) using the calcium phosphate precipitation method. Forty-eight hours after transfection, the cells were exposed to the compounds of the invention and the percentage of myocytes killed during simulated ischemia was determined.
The transfected myocytes were then exposed to the compound for 5 minutes, which was followed by replacement with fresh media and myocytes exposed to normal conditions (non-ischemic) for 10 minutes prior to being exposed to ninety minutes of ischemia. The decrease in the number of myocytes killed in A3 receptor cDNA-transfected myocytes as compared to vector-transfected myocytes was plotted as a function of the concentration of the compound. This decrease in myocytes killed represented an index of the protection mediated via the human adenosine A3 receptor.

Chains of the proteins cited; added tags and fusions are not shown.
UniProt P0DMS8, whole entry: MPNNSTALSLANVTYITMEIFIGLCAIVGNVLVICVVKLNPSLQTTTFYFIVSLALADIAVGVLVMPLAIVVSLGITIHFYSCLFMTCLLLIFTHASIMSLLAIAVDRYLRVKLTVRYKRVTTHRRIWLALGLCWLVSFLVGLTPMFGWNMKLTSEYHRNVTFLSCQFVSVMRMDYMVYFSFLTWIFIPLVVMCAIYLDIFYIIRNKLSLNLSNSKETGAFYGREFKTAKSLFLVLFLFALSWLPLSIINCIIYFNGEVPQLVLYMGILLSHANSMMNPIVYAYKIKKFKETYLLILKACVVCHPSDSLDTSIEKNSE

## CNC(=O)[C@H]1O[C@@H](n2cnc3c(NCc4cccc(I)c4)nc(Cl)nc32)[C@H](O)[C@@H]1O [Cl-IB-MECA, 2-chloro-N^6-(3-iodobenzyl)adenosine-5′-N-methyluronamide]
  preconditioning / protection mediated via human adenosine A3 receptor: significantly greater in the cells transfected with the human A3 receptor encoding cDNA than in untransfected or cells transfected with empty vector
